Values of other authors, collected in paper PMC4752257.

By UniProt entry, the sequences of proteins in these tests, tags left out. Residues count along the entry.
UniProt P31785, 23-262: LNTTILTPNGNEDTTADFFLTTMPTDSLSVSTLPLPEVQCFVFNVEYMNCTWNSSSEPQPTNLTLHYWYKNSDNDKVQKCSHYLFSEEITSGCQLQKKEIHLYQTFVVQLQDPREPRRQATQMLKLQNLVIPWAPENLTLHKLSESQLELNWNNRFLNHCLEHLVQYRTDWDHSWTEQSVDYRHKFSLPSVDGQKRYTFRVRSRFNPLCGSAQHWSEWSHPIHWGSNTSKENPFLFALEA
UniProt P05112, 25-153: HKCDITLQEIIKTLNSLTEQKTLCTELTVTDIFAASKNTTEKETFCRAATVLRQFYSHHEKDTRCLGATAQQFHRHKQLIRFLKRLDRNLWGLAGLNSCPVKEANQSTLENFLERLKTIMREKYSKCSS

Biological target: common gamma chain (Homo sapiens) (UniProt P31785)

IL-4 (from UniProt P05112)
Kd: 150 µM
